From paper PMC9865040, “Design of A3B-Porphyrin Conjugates with Terpyridine as Potential Theranostic Agents: Synthesis, Complexation with Fe(III), Gd(III), and Photodynamic Activity” (Pharmaceutics, 2023)

Assay: Aggregation behaviour, UV-vis absorption and fluorescence spectra in DMF and aqueous solubiliser solutions
Type: physicochemical
Experimental: Aggregation behavior, photophysical characterization and solubilisation studies. Photophysical properties of zinc complexes of amphiphilic meso-arylporphyrins and their conjugates with terpyridine were studied in DMF and aqueous solutions of different solubilisers. Stock solutions of 1 mM of the studied compounds in DMF were added upon stirring to a micellar aqueous solution of a solubiliser (3 mL). The final concentration of the porphyrins was 3.5 µM. UV-vis absorption spectra were recorded using HACH DR-4000V spectrophotometer (Hach-Lange, Loveland, CO, USA) within the wavelength range of 320–800 nm with a step of 1 nm in quartz cells (10 mm) at room temperature. Steady-state fluorescence spectra were recorded using Perkin Elmer LS-50 (USA) luminescent spectrometer under similar conditions with the Soret band maximum excitation. Fluorescence quantum yields (ΦF) for Zn(II) complexes in DMF were measured according to the procedure using ZnTPP as a standard (ΦF = 0.033).

λem, first band (Brij-58 (0.5 mM)): 615 nm
λmax (Brij-58 (0.5 mM)): 428
λem, first band (Cremophor (1% Cremophor EL)): 614 nm
λQ (second Q band) (DMF): 602 nm
λem, first band (DMSO): 614 nm
λem, second band (DMSO): 664 nm
λmax (DMSO): 428
lgε (H2O): 5.17
λem, first band (H2O): 614 nm
λmax (H2O): 433
λem, first band (Pluronic (1% Pluronic F-127)): 617 nm
λmax (Pluronic (1% Pluronic F-127)): 428
I1/I2 (emission band intensity ratio) (TX-100 (1 mM)): 1.83
λem, first band (TX-100 (1 mM)): 612 nm
λem, second band (TX-100 (1 mM)): 663 nm
λmax (TX-100 (1 mM)): 428
λem, first band (Tween-80 (0.5 mM)): 612 nm
λem, second band (Tween-80 (0.5 mM)): 662 nm
λmax (Tween-80 (0.5 mM)): 428
SMILES: CCCCCCOc1ccc(-c2c3nc(c(-c4ccc(OCCCCCC)cc4)c4ccc([n-]4)c(-c4ccc(OCc5ccc(-c6cc(-c7ccccn7)nc(-c7ccccn7)c6)cc5)cc4)c4nc(c(-c5ccc(OCCCCCC)cc5)c5ccc2[n-]5)C=C4)C=C3)cc1.[Zn+2] [compound 12]
